Data from PMC3825534 (Journal of Cancer Research and Clinical Oncology, 2013).

Tested on: cell lines with non-malignant phenotypes (epithelial MCF 10A, renal RPTEC/TERT1 and hepatocyte NeHepLxHT)
Assay: FMCA concentration-response, non-malignant cell lines
Type: cell-based
Settings: 72 h FMCA
Description: The colon cancer cell lines HT29, HT-8 and SW626 and the normal phenotype non-malignant epithelial MCF 10A, renal RPTEC/TERT1 and hepatocyte NeHepLxHT cell lines were used for validation experiments. These cell lines were all obtained from ATCC and cultured according to the protocols provided by the supplier. All the cell lines were cultured at 37 °C in a humidified atmosphere containing 5 % CO2.
For dose–response studies, Labcyte source plates and the Echo dispenser were used in a similar manner to deliver different concentrations of each drug to destination plates using on board software protocols (Labcyte).
The fluorometric microculture cytotoxicity assay (FMCA), described in detail previously (Lindhagen et al. [2008]), was used for measurement of the cytotoxic effect of library compounds and the established standard drugs. The FMCA is based on measurement of fluorescence generated from hydrolysis of fluorescein diacetate (FDA) to fluorescein by cells with intact plasma membranes. […] Results are expressed as survival index (SI), defined as fluorescence of experimental wells in per cent of unexposed control wells with blank values subtracted.
Concentration–response data of screening hits and standard agents were analyzed using the software GraphPad Prism4 (GraphPad Software Inc., San Diego, CA, USA). […]

With `COC(=O)Nc1nc2ccc(C(=O)c3ccccc3)cc2[nH]1` [mebendazole] the “activity in non-malignant cell line models” value was “largely inactive”.
